Reference: PubChem BioAssay AID1377 (University of Pittsburgh Molecular Library Screening Center, 2008)
The list shows a part of the results, in another mix than the full data. Some salts and complexes are drawn in separate pieces, as the source files them; their charges need not balance. The source made the active and inactive calls.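 How the source made its calls: active means activation, scaled between plate controls, above about 75% (limit read from the data); inactive means activation under that limit.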

Assay: rescue of L929 cells from zVAD death – primary screen (AID 1377);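 further: 0% = zVAD with DMSO and 100% = DMSO alone without zVAD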
Settings: L929 zVAD necroptosis rescue, ATP luminescence, 24 h, at 10 µM, active compounds read high; with zVAD 60 µM unless noted

Structure (SMILES)	viability rescue
O=C(O)c1cccc(Nc2c([N+](=O)[O-])cc([N+](=O)[O-])cc2[N+](=O)[O-])c1	inactive: -0.47%
CC1=NCCc2c1[nH]c1ccccc21.O=[N+]([O-])c1cc([N+](=O)[O-])c(O)c([N+](=O)[O-])c1	inactive: -0.13% [with zVAD 20 µM]
Cc1cc(C)cc(OP(C)(=O)Nc2ccc(C)cc2C)c1 (stereo not given)	inactive: -0.48%
CCOC(=O)c1ccc(NP(C)(=O)Oc2cc(C)cc(C)c2)cc1 (stereo not given)	inactive: 1.99%
COc1ccccc1OP(C)(=O)Nc1cccc(Br)c1 (stereo not given)	inactive: 0.45%
COc1cc(C(=O)NCC2(N3CCOCC3)CCCCC2)cc(Cl)c1OC(C)C	inactive: 1.71%
Cc1cc(C)cc(OP(C)(=O)Nc2ccccn2)c1 (stereo not given)	inactive: 0.37%
CP(=O)(Nc1cccc(Br)c1)Oc1ccccc1 (stereo not given)	inactive: -0.5%
Cc1ccc(C)c(NP(C)(=O)Oc2ccccc2)c1 (stereo not given)	inactive: -0.15% [with zVAD 20 µM]
O=[N+]([O-])c1cc([N+](=O)[O-])c(-n2nnc3ccccc32)c([N+](=O)[O-])c1	inactive: 2.52%
Cc1nc2ccc3ccccc3c2s1.O=[N+]([O-])c1cc([N+](=O)[O-])c(O)c([N+](=O)[O-])c1	inactive: 0.44% [with zVAD 20 µM]
CCOC(=O)C(CC)C1=NC(C)(C)Cc2ccccc21.O=[N+]([O-])c1cc([N+](=O)[O-])c(O)c([N+](=O)[O-])c1 (stereo not given)	inactive: 0.01%
CN(C)C1(CNC(=O)c2ccc(S(C)(=O)=O)cc2)CCCCC1	inactive: -0.05%
O=[N+]([O-])c1cc([N+](=O)[O-])c(Nc2nnnn2CCO)c([N+](=O)[O-])c1	inactive: 0.11%
CCCOc1ccc(NP(C)(=O)Oc2ccc(Cl)cc2)cc1 (stereo not given)	inactive: 1.5%
CP(=O)(Nc1ccc(SC(F)(F)F)cc1)Oc1ccccc1 (stereo not given)	inactive: 1.02%
COc1ccccc1OP(C)(=O)Nc1c(C)cccc1C (stereo not given)	inactive: 0.06% [with zVAD 20 µM]
CN1CCCCC1COC(=O)C1(O)c2ccccc2CCc2ccccc21 (stereo not given)	inactive: -0.26%
COc1ccccc1OP(C)(=O)Nc1ccccc1 (stereo not given)	inactive: 1.82%
CP(=O)(Nc1ccccc1Br)Oc1ccccc1 (stereo not given)	inactive: -0.08%
CP(=S)(Nn1cnnc1)Oc1ccccc1 (stereo not given)	inactive: 0.41%
Cc1cc(C)cc(OP(C)(=O)Nc2ccc(SC(F)(F)F)cc2)c1 (stereo not given)	inactive: 0.89%

Structure (SMILES)	viability rescue
CP(=O)(NC(=O)Nc1ccccc1)Oc1ccccc1 (stereo not given)	inactive: -0.22% [with zVAD 20 µM]
CCc1ccc(OP(C)(=O)N2CCN(c3ccc([N+](=O)[O-])cc3)CC2)cc1 (stereo not given)	inactive: -0.07%
CP(=O)(Oc1ccccc1)OC(c1ccccc1)C(F)(F)F (stereo not given)	inactive: -0.05%
Cc1cccc(C)c1OP(C)(=O)Nc1ccc(SC(F)(F)F)cc1 (stereo not given)	inactive: -0.47% [with zVAD 20 µM]
CP(=O)(Nc1ccc(SC(F)(F)F)cc1)Oc1ccc(Cl)cc1 (stereo not given)	inactive: 1.77%
CP(=O)(Nc1ccccn1)Oc1ccc(Cl)cc1 (stereo not given)	inactive: 0.2%
CCOP(C)(=S)SCC(=O)NC(C)C(=O)O (stereo not given)	inactive: -0.32%
CCOC(=O)c1ccc(NP(C)(=O)Oc2ccc(OC)cc2)cc1 (stereo not given)	inactive: 2.15%
CCN(CC)CCCOC(=O)C(O)(c1ccccc1)c1ccccc1	inactive: -2.12%
Cc1cccc(C)c1OP(C)(N)=O (stereo not given)	inactive: 2.3%
CC(C)(C)c1ccc(OP(C)(=O)Nc2ccc(SC(F)(F)F)cc2)cc1 (stereo not given)	inactive: 8.27%
O=[N+]([O-])c1ccc2c(c1)C=Nc1ccccc1O2	inactive: -2.03%
COc1ccc(OP(C)(=O)Nc2cccc(F)c2)cc1 (stereo not given)	inactive: 1.84%
COc1ccccc1OP(C)(=O)Nc1cc(Cl)ccc1C (stereo not given)	inactive: 0.02%
Cc1cc(C)cc(OP(C)(N)=O)c1 (stereo not given)	inactive: -0.25%
CCOC(=O)c1ccc(NP(C)(=O)Oc2ccccc2)cc1 (stereo not given)	inactive: 0.86%
Cc1ccc(NP(C)(=O)Oc2ccccc2)c(C)c1 (stereo not given)	inactive: -0.15%
COc1ccccc1OP(C)(=O)Nc1ccc(C)cc1 (stereo not given)	inactive: 4.29%
COc1ccc(OP(C)(=O)Nc2ccccc2Br)cc1 (stereo not given)	inactive: 1.14%
COc1ccccc1OP(C)(=O)Nc1ccc(C)c(C)c1 (stereo not given)	inactive: 0.17% [with zVAD 20 µM]
Cc1cc(C)cc(OP(C)(=O)Nc2cccc(C(F)(F)F)c2)c1 (stereo not given)	inactive: 0.45%
CP(=O)(Nc1ccc(Cl)cc1Cl)Oc1ccccc1 (stereo not given)	inactive: 0.2%

Structure (SMILES)	viability rescue
CP(=O)(OCCOc1ccccc1)OCCOc1ccccc1	inactive: 0.7%
Cc1nc2ccc3ccccc3c2o1.O=[N+]([O-])c1cc([N+](=O)[O-])c(O)c([N+](=O)[O-])c1	inactive: 0.06% [with zVAD 20 µM]
CN(C)CCOC(=O)C(O)(c1ccccc1)C1CCCC1 (stereo not given)	inactive: -0.3%
COc1ccc(OP(C)(=O)Nc2ccccn2)cc1 (stereo not given)	inactive: 0.64%
COc1ccccc1OP(C)(=O)Nc1ccc(Br)cc1 (stereo not given)	inactive: 0.63%
CCc1ccc(OP(C)(=O)O)cc1	inactive: -0.21% [with zVAD 20 µM]
COc1ccccc1OP(C)(=O)Nc1ccc(C)cc1C (stereo not given)	inactive: 0.02% [with zVAD 20 µM]
CP(=O)(Nc1ccccn1)Oc1ccccc1 (stereo not given)	inactive: -0.14% [with zVAD 20 µM]
Cc1c(NP(C)(=O)Oc2ccc(C(C)C)cc2)c(=O)n(-c2ccccc2)n1C (stereo not given)	inactive: 0.37% [with zVAD 20 µM]
O=[N+]([O-])c1cc([N+](=O)[O-])c(Nc2ccccn2)c([N+](=O)[O-])c1	inactive: 6.18%
CCc1ccc(OP(C)(=O)Nc2cccnc2)cc1 (stereo not given)	inactive: 0.93%
CP(=O)(Oc1ccccc1)N1CCOC1=O (stereo not given)	inactive: -0.48% [with zVAD 20 µM]
O=C(OCCCN1CCCC1)C(O)(c1ccccc1)C1CCCCC1 (stereo not given)	inactive: 1.09%
COc1ccccc1OP(C)(=O)Nc1c(C)n(C)n(-c2ccccc2)c1=O (stereo not given)	inactive: -0.89% [with zVAD 20 µM]
COc1ccc(OP(C)(=O)Nc2ccc(Br)cc2)cc1 (stereo not given)	inactive: 1.72%
CCN(CC)CC(O)COC(=O)C(O)(c1ccccc1)C1CCCCC1 (stereo not given)	inactive: 0.48% [with zVAD 20 µM]
CN(C)C(=O)c1c([N+](=O)[O-])cc([N+](=O)[O-])cc1[N+](=O)[O-]	inactive: -0.8%
CP(=O)(Nc1ccc(Cl)cc1)Oc1ccc(F)cc1 (stereo not given)	inactive: 0.04% [with zVAD 20 µM]
COc1ccccc1OP(C)(=O)Nc1ccccc1Br (stereo not given)	inactive: 0.56%
CC(C)(C)c1ccc(OP(C)(=O)O)cc1	inactive: -0.07%
CP(=O)(OC12CC3CC(CC(C3)C1)C2)OC12CC3CC(CC(C3)C1)C2	inactive: 1.32%
CCOC(=O)c1ccc(NP(C)(=O)Oc2ccc(Cl)cc2)cc1 (stereo not given)	inactive: 1.53%

Structure (SMILES)	viability rescue
COc1ccc(NP(C)(=O)Oc2ccccc2OC)cc1 (stereo not given)	inactive: -0.1%
CN(C)CCOC(=O)C(O)(c1ccccc1)C1CCCCC1 (stereo not given)	inactive: -0.17% [with zVAD 20 µM]
COc1ccc(OP(C)(=O)Nc2cccc(Br)c2)cc1 (stereo not given)	inactive: 0.22% [with zVAD 20 µM]
Cc1cc(-c2cccc3ccccc23)c(C)cn1.O=[N+]([O-])c1cc([N+](=O)[O-])c(O)c([N+](=O)[O-])c1	inactive: 0.42%
O=[N+]([O-])c1cc([N+](=O)[O-])c(NCC2CCS(=O)(=O)C2)c([N+](=O)[O-])c1 (stereo not given)	inactive: 71.8%
O=[N+]([O-])c1ccc(OP2(=O)COCCO2)cc1 (stereo not given)	inactive: 0.25%
CCOP(C)(=S)SCC(=O)NC(C)(CC)C(=O)O (stereo not given)	inactive: -0.23% [with zVAD 20 µM]
CP(=O)(Nc1ccc(SC(F)(F)F)cc1)Oc1ccc(F)cc1 (stereo not given)	inactive: 1.51%
Cc1ccccc1NP(C)(=O)Nc1ccccc1C	inactive: 1.62%
CP(=O)(Nc1ccc2c(c1)OCCO2)Oc1ccccc1 (stereo not given)	inactive: 0.02% [with zVAD 20 µM]
CC(C)c1ccc(OP(C)(=O)Nc2ccc(SC(F)(F)F)cc2)cc1 (stereo not given)	inactive: 6.74%
CP(=O)(Nc1ccccc1F)Oc1ccccc1 (stereo not given)	inactive: -0.2% [with zVAD 20 µM]
COc1ccc2c(c1O)-c1c(O)c(OC)cc3c1[C@H](C2)[N+](C)(C)CC3.O=[N+]([O-])c1cc([N+](=O)[O-])c([O-])c([N+](=O)[O-])c1[O-]	inactive: 0.11%
O=C(OCCN1CCN(CCOCc2ccccc2)CC1)C(O)(c1ccccc1)c1ccccc1	inactive: 0.23%
O=C(OC1CN2CCC1CC2)c1ccc([N+](=O)[O-])cc1 (stereo not given)	inactive: 0.62%
COc1ccc(OP(C)(=O)Nc2ccc(SC(F)(F)F)cc2)cc1 (stereo not given)	inactive: 3.88%
CCCCCOc1ccc(NP(C)(=O)Oc2ccc(Cl)cc2Cl)cc1 (stereo not given)	inactive: 1.2%
CP(=O)(Nc1ccccc1)Oc1ccc(F)cc1 (stereo not given)	inactive: -0.12% [with zVAD 20 µM]
CCN(CC)CCCOC(=O)C(O)(c1ccccc1)C1CCCCC1 (stereo not given)	inactive: -0.74%
